What was measured:
[1] = target: Peroxisome proliferator-activated receptor gamma (Homo sapiens, UniProt P37231); experiment: Agonist activity at human PPARgamma expressed in CHO cells assessed as increase in receptor transcriptional activity at 1 uM incubated for 24 hrs by dual luciferase reporter gene assay relative to rosiglitazone; format: cell-based
[2] = target: Free fatty acid receptor 1 (Mus musculus) (UniProt Q76JU9); experiment: Agonist activity at GPR40 in mouse MIN6 cells assessed as fold increase in 17 mM glucose-mediated insulin secretion at 1 to 10 uM incubated for 2 hrs by ELISA relative to control; format: functional, cell-based; settings: filed as positive allosteric modulator, dose 1-10 µM

Sequences of proteins named here, by UniProt entry; tags and fusion partners are left off. A change or cut given only in a name is not applied to a line headed by its entry.
UniProt P37231: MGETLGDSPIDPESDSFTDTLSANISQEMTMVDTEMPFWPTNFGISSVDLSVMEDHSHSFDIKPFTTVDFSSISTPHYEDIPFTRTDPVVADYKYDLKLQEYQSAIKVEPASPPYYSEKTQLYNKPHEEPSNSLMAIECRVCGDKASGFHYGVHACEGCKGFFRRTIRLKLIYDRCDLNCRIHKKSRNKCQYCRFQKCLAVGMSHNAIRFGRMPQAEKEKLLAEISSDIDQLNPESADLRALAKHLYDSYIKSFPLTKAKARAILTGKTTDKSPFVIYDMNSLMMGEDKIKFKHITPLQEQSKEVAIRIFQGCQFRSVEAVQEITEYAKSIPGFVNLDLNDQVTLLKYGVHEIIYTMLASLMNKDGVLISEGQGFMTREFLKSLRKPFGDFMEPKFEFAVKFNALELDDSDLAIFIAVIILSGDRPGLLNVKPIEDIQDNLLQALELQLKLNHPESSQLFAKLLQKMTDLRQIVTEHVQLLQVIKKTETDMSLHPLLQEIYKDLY
UniProt Q76JU9, whole entry: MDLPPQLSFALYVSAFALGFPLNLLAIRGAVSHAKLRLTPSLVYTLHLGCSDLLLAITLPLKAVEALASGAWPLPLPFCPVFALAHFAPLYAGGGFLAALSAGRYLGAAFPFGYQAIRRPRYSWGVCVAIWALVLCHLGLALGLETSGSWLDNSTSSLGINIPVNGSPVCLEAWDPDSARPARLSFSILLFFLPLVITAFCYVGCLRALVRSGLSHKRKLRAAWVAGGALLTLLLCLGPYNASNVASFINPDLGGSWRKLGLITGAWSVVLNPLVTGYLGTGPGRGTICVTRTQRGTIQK

Row | SMILES | Emax [1] | fold change (FC) [2] | Emax ([1]; filed as agonist)
1 | Cc1ccc(C)c(-c2cc3cc(CCC(=O)O)ccc3[nH]2)c1 | 15.2% | 1.12 | 
2 | Cc1c(Cl)cccc1-c1cc2cc(CCC(=O)O)ccc2[nH]1 |  |  | 59.9%
